Measurements: patent publication US7090991B2 (priority 1999, dated 2006)

Amino acid sequences for entries named in this document (tags omitted). A change or cut given only in a name is not applied to a line headed by its entry.
UniProt P25105, whole entry, species assumed: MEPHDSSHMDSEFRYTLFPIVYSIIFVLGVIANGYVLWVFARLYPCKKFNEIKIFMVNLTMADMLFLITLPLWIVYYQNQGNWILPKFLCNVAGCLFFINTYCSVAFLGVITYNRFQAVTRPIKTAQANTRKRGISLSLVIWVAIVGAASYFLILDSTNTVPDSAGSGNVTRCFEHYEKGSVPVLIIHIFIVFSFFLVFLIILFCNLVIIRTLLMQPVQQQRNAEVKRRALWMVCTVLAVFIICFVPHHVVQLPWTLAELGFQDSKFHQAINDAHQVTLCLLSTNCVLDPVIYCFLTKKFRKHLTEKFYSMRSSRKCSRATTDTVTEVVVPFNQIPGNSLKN
UniProt P30542, whole entry: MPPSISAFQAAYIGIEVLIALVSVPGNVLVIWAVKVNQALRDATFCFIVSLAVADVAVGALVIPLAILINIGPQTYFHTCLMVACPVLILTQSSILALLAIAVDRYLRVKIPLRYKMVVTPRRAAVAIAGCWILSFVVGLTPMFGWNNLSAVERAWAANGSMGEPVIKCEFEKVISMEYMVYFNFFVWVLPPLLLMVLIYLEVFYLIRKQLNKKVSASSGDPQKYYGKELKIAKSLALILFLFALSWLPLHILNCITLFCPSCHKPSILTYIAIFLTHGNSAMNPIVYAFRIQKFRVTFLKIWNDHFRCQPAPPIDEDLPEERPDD
UniProt P29275: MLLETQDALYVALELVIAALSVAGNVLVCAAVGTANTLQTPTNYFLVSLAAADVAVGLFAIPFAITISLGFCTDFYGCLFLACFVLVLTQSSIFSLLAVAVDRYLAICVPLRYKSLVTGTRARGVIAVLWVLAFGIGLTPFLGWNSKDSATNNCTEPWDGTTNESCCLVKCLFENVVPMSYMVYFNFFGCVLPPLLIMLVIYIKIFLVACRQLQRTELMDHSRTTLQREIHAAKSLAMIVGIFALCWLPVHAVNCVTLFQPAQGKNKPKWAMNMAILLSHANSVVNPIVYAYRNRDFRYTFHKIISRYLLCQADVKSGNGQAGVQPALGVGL

Legend:
[1] = target: T1, Platelet activating factor Receptor (Homo sapiens, UniProt P25105); test: Test cell + FUS1p-lacZ plasmid, PAF receptor; format: cell-based; conditions: CY18592, CP1304, saturating or near saturating ligand
T1 construct: expressed in transfected cells; host or cells: Saccharomyces cerevisiae MATα test cells (MFα1-deleted)

[2] = target: T1, Platelet activating factor Receptor; test: Test cell + detector cell (FDG), PAF receptor; format: cell-based; conditions: CY18592, CP1304, saturating or near saturating ligand
Adenosine 1 Receptor = Adenosine 1 Receptor (Homo sapiens, UniProt P30542); conditions: A1; CY18776, CP5095; saturating or near saturating ligand; FDG
Adenosine 2B Receptor = Adenosine 2B Receptor (Homo sapiens, UniProt P29275); conditions: A2b; CY18634, CP6281; saturating or near saturating ligand; FDG

PAF
Fold induction, Test Cell + FUS1p-lacZ plasmid [1]: 44 fold
Fold induction, Test cell + Detector Cell [2]: 16 fold

NECA
Fold induction, Test cell + Detector Cell (Adenosine 1 Receptor): 20 fold
Fold induction, Test cell + Detector Cell (Adenosine 2B Receptor): 26 fold
